## AlphaSeq binding of Ab-14 heavy chain variants to a spike HR2 peptide

Target: peptide PDVDLGDISGINAS, taken from heptad repeat 2 (HR2) of SARS-CoV-2 spike.

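This is the validation round: designs drawn from the data on random variants, tested in the same kind of assay. Group labels follow the data file (Ctrl: baseline library sampled from a position-specific scoring matrix, with some repeated check sequences; Rand: our label for a block that the file lists under HC and that is probably the random mutants of the ten best first-round binders; En: ensemble of fine-tuned language models; GP: Gaussian process model; GPLM: also part of the Gaussian process libraries; HC: hill climbing; Gen: genetic algorithm; Gibbs: Gibbs sampling; a sequence that several methods proposed may carry one label only). Affinity was read by AlphaSeq, a pooled yeast mating assay with surface-displayed partners. Mating (16 h, 30 °C) was followed by selection of diploids and sequencing of their barcodes. Each replicate has its own calibration line, from reference interactions of the BCL2 family. Each pool was mated in six replicate cultures.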

Parent scFv Ab-14: VH joined to VL by a (GGGGS)3 linker. Changes lie in the heavy chain CDRs alone.
VH: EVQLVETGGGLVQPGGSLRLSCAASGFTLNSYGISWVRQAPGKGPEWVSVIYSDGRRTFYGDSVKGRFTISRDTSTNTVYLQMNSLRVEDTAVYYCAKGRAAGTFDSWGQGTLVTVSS
VL: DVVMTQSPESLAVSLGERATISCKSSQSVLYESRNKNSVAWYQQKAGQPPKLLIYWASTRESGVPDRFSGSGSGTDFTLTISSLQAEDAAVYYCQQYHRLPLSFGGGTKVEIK

The whole VH of each variant is written out. Kd is apparent (estimated from mating counts) and averaged on the log scale over replicates with a signal. Smaller is tighter. "nd" means that the variant was in the library but no mating with the target was seen in any replicate; the authors take this as a sign of poor binding, and no number exists. Nonspecific signal, from three strains lacking the peptide, appeared in 1% of pairings of all heavy chain designs, centred on 120 nM (5% of these signals below 7.0 nM); values are not corrected for it. For each scFv, signals with the empty controls are counted beside the result.

| # | VH | group | Kd | seen in | signal with controls |
|---|---|---|---|---|---|
| 1 | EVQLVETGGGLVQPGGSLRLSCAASGFDLDEYGISWVRQAPGKGPEWVSVIYADGKRTFYADSVKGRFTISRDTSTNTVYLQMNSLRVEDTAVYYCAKGENAGTFDAWGQGTLVTVSS | En_HC | 2.9 nM | 6 of 6 | 0 of 18 |
| 2 | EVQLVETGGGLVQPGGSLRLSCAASGFDLDEYGISWVRQAPGKGPEWVSVIYADGKRTAYSDSVKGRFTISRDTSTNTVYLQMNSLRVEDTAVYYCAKGETAGTFDIWGQGTLVTVSS | En_Gen | 760 pM | 6 of 6 | 0 of 18 |
| 3 | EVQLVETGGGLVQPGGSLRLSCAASGFSLNSYGISWVRQAPGKGPEWVSVIYSDGRRTFYADKVKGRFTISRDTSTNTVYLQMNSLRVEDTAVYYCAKGKAAGTFDSWGQGTLVTVSS | GPLM_Gen | 5.6 nM | 6 of 6 | 1 of 18 |
| 4 | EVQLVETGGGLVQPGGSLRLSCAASGFTLDSYGISWVRQAPGKGPEWVSVIYSDGRRTFYEDSVKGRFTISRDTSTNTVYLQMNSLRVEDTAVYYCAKGRHAGTFDSWGQGTLVTVSS | Ctrl | 55 nM | 6 of 6 | 0 of 18 |
| 5 | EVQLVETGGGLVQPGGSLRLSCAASGFTLNSYGISWVRQAPGKGPEWVSVIYSDGRRTFYQDSVKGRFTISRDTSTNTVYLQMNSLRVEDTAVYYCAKGRAATTVDSWGQGTLVTVSS | Ctrl | nd | 0 of 6 | 0 of 18 |
| 6 | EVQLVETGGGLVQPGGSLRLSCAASGFQLNSYGISWVRQAPGKGPEWVSVIYSDGRRTFYGDSVKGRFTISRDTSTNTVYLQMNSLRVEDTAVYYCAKGRQAGTFDTWGQGTLVTVSS | GP_Gen | 17 nM | 3 of 6 | 0 of 18 |
| 7 | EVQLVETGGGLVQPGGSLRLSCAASGFSLDEYGVSWVRQAPGKGPEWVSVIYADGLRTQYVNDVKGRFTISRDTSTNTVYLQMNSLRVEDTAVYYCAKGLESFAFKMWGQGTLVTVSS | En_Gibbs | 60 nM | 1 of 6 | 0 of 18 |
| 8 | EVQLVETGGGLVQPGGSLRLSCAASGFDLNEYGISWVRQAPGKGPEWVSVIYADGRRTFYSDSVKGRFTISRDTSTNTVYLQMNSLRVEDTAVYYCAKGEHAGIFDVWGQGTLVTVSS | En_HC | 1.9 nM | 6 of 6 | 1 of 18 |
| 9 | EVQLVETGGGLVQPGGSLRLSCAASGFDLGEYGVSWVRQAPGKGPEWVSVIYADGLRAQYASKVKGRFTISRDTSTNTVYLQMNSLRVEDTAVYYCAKGNFSGNFDKWGQGTLVTVSS | En_Gibbs | nd | 0 of 6 | 0 of 18 |
| 10 | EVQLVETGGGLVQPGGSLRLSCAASGFDLDEYGISWVRQAPGKGPEWVSVIYADGMRTAYSDSVKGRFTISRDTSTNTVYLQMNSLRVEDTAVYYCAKGHNAGTFDVWGQGTLVTVSS | En_Gen | nd | 0 of 6 | 0 of 18 |
| 11 | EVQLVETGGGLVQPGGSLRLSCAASGFTLNSYGISWVRQAPGKGPEWVSVIYSDGRRTFYGDEVKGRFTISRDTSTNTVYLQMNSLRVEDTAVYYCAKGFAAGTFDSWGQGTLVTVSS | Ctrl | nd | 0 of 6 | 0 of 18 |
| 12 | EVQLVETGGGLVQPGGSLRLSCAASGDSLNEYGISWVRQAPGKGPEWVSVIYADGRRSFYTDNVKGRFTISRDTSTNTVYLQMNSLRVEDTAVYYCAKGHAGGIFMSWGQGTLVTVSS | En_Gibbs | 11 nM | 1 of 6 | 0 of 18 |
| 13 | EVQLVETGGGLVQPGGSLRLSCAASGFDLDEYGISWVRQAPGKGPEWVSVIYADGKRTAYSDSVKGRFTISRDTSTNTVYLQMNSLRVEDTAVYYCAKGNQAGTFDMWGQGTLVTVSS | En_Gen | 420 pM | 6 of 6 | 0 of 18 |
| 14 | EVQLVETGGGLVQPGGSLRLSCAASGFDLNEYGISWVRQAPGKGPEWVSVIYADGRRTAYTDSVKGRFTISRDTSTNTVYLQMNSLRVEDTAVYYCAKGNVAGTFDMWGQGTLVTVSS | En_Gen | 370 pM | 6 of 6 | 0 of 18 |
| 15 | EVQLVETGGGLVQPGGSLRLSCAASGFDLNEYGISWVRQAPGKGPEWVSVIYADGRRTAYIDSVKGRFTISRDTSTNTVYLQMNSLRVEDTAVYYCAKGNVAGTFDTWGQGTLVTVSS | En_Gen | 550 pM | 6 of 6 | 0 of 18 |
| 16 | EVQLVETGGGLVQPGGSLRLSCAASGFTLNSYGISWVRQAPGKGPEWVSVIYSDGRRTFYGDSVKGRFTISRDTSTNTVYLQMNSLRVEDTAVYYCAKGRAADTFSSWGQGTLVTVSS | Ctrl | nd | 0 of 6 | 0 of 18 |
| 17 | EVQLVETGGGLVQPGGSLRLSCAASSFSLNSYGISWVRQAPGKGPEWVSVIYSDGRRTFYGDSVKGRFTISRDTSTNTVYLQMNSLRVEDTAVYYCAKGEAAGTFDSWGQGTLVTVSS | GPLM_Gen | 5.7 nM | 1 of 6 | 1 of 18 |
| 18 | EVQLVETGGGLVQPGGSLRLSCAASGFDLNEYGISWVRQAPGKGPEWVSVIYADGIRQAYEDNVKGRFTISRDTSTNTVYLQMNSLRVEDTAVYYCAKGRNIINLLFWGQGTLVTVSS | En_Gibbs | nd | 0 of 6 | 0 of 18 |
| 19 | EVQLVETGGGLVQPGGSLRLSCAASGFDLEEFGISWVRQAPGKGPEWVSVIYADGRRTQYTANVKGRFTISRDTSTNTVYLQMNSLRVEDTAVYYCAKGGKSGDFFMWGQGTLVTVSS | En_Gibbs | nd | 0 of 6 | 0 of 18 |
| 20 | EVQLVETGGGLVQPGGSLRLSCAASGFTLLSYGISWVRQAPGKGPEWVSVIYSDGRRTFYGDSVKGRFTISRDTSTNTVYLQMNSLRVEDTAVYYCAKGRAAGAFDDWGQGTLVTVSS | Ctrl | nd | 0 of 6 | 0 of 18 |
| 21 | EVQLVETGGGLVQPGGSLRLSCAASGFSLNEYGISWVRQAPGKGPEWVSVIYSDGRRTFYGDSVKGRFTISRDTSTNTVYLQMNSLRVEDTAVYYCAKGNAAGTFDKWGQGTLVTVSS | GP_Gen | 1.3 nM | 6 of 6 | 0 of 18 |
| 22 | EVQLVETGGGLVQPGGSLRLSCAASGFTRNQYGISWVRQAPGKGPEWVSVIYSDGRRTFYSDSVKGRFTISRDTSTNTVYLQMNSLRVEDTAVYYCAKGRAAGFFVSWGQGTLVTVSS | Rand | nd | 0 of 6 | 0 of 18 |
| 23 | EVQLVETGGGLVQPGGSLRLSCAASGFDLNEYGISWVRQAPGKGPEWVSVIYADGRRTAYSDSVKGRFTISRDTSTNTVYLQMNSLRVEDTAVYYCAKGEAAGFFDQWGQGTLVTVSS | En_HC | nd | 0 of 6 | 0 of 18 |
| 24 | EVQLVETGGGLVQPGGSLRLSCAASGFDLNEYGISWVRQAPGKGPEWVSVIYADGMRTFYADSVKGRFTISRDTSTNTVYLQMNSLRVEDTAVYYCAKGNNAGTFDQWGQGTLVTVSS | En_Gen | 790 pM | 6 of 6 | 0 of 18 |

Repeated from above, the 2 best binders with a signal in all replicates:

VH,group,Kd,seen in,signal with controls
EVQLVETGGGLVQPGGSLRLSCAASGFDLNEYGISWVRQAPGKGPEWVSVIYADGRRTAYTDSVKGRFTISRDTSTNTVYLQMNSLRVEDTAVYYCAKGNVAGTFDMWGQGTLVTVSS,En_Gen,370 pM,6 of 6,0 of 18
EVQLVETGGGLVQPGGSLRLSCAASGFDLDEYGISWVRQAPGKGPEWVSVIYADGKRTAYSDSVKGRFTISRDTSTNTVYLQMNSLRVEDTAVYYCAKGNQAGTFDMWGQGTLVTVSS,En_Gen,420 pM,6 of 6,0 of 18

A sequence measured in both rounds can read differently, since the two assays cover different ranges. In the paper, a design with two or fewer of six values counts as a poor binder. Of ten entries with the parent sequence, four were seen in most replicates (averages 2.2 nM to 240 nM), three in one and three in none, so single entries are noisy.

Reference: Li et al. 2023, doi:10.1038/s41467-023-39022-2. File: FLAb, binding data.